AlphaSeq binding of Ab-14 light chain variants to a spike HR2 peptide

Values reported by Engelhart et al. 2022, doi:10.1038/s41597-022-01779-4 (FLAb copy).

Binding partner: SARS-CoV-2 spike HR2 peptide, sequence PDVDLGDISGINAS.

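AAYL50 was designed without a model: most single CDR substitutions and a random sample of double and triple ones. AlphaSeq pools MATa yeast showing the antibodies with MATalpha yeast showing the peptide. Binding brings cells together so that they mate, and sequencing counts the barcode pairs among the diploids. Read counts were normalised to the haploid input and turned into Kd by a linear fit to BCL2-family pairs of known affinity, for each replicate. Each pool was mated in three replicate cultures.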

Each scFv is VH, a 15-residue (Gly4Ser)3 linker, VL, as in the parent Ab-14, and differs from it in the CDRs of the light chain only.
VH: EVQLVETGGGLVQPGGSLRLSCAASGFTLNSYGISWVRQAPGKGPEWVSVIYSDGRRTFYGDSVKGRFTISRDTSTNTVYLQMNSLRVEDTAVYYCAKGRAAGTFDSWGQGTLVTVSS
VL: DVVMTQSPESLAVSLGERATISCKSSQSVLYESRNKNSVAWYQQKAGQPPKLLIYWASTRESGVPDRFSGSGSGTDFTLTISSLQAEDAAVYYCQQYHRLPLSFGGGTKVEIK

Changes read parent residue, position, new residue, counted from the first residue of the VL shown. The read-out is the apparent dissociation constant on a log10 scale (nM): the lower, the stronger. Averages over replicates are reported, and they cover detected replicates only. Where no diploid with the target was found in any replicate, the entry reads "nd": below detection, most likely a poor binder, though not proof of it. Parent in this assay: reference entry 0.65, copy in this library 1.68. Background: pairings of library AAYL50 with three empty control strains gave a value in 18% of cases (median 4.19, 5th percentile 2.99). Values in that range, when seen in few replicates, are hard to tell from nonspecific mating.

changes	log10 Kd (nM), mean	seen in
K24D+S25E+Q27S	2.35	2/3
S25E+A40W+A57D	3.43	1/3
S28N+A40Y+L100G	4.40	1/3
V39E+L100R+L102M	nd	0/3
Q95R+L100N+L102N	nd	0/3
S33R+V39G+W56R	3.96	1/3
S25Y+R60P+Y97H	3.92	1/3
N37E+T59H+L100Y	1.46	3/3
Q95R+Y97D+H98P	1.28	3/3
N35T+S58P+S103Y	4.60	2/3
V29T+E32A+L100E	nd	0/3
S33T+K36M+P101F	2.36	3/3
S28M+V39S+A57E	3.95	1/3
Q27M+A40T+Q96I	nd	0/3
N35W+V39I+E61I	1.67	3/3
K24V+S33M+R99W	nd	0/3
Q27E+Y31T+P101W	1.63	3/3
S33A+A40F+W56H	nd	0/3
N37A+S58P+R60W	4.51	2/3
R34S+A40Y+Y97E	nd	0/3
T59N+Y97L	1.27	3/3
V29E+R34P+S62M	0.19	3/3
L30S+Y31W+L102E	0.65	3/3
V39H+E61W+R99D	nd	0/3
L30P+N35F+H98I	2.93	1/3
R60G+Q95S	nd	0/3
R34V+Y97W+R99P	0.74	3/3
E32F+R34H+Q95E	3.45	1/3
K24C+V39E+A40S	4.73	1/3
S38N+E61P+Q96V	2.33	3/3
V39T+Q95L+R99Y	4.60	2/3
V29L+T59P+L102F	5.58	1/3
S25W+S38R+R99Q	1.98	3/3
E61A+P101G	1.27	3/3
W56Q+S62Y+H98K	0.77	3/3
S25Y+N35C+H98Y	3.13	3/3
S25M+H98D+P101W	3.20	1/3
N35V+K36G+S62L	0.85	3/3
S26M+L30E+A57R	4.65	2/3
S26K+A57W+S58V	nd	0/3
E32M+S33K+A40K	5.11	1/3
E32R+K36Y+S38P	3.00	3/3
Q27G+S28H+L30F	nd	0/3
Q95R+S103Y	nd	0/3
Y31F+S33D+Q95T	3.50	1/3
S28L+K36H+L102I	nd	0/3
S25P+S62N+P101I	3.09	3/3
S26Y+V29A+S58R	3.08	3/3
K36W+T59P+P101W	3.60	1/3
K24T+V29Q+E61S	2.58	3/3
S33H+N37K+W56H	0.63	3/3
A57N+E61A+H98R	3.57	3/3
E61Q+Q95R	4.42	1/3
W56E+A57P+L100C	3.33	2/3
S28T+L100A+S103M	nd	0/3
R34P+A57Y+H98I	nd	0/3
N35Q+S38G+S58C	nd	0/3
S33D+A57L+R99H	nd	0/3
S25A+N37K+S62M	1.85	3/3
V29F+N35Q+A57C	3.08	3/3
S33F+Q96E+R99A	4.40	2/3
N35A+S58I+Q96I	1.58	2/3
S25D+Q27V+S103W	2.81	3/3
N35S+Y97H+S103K	4.33	1/3
N35H+R60I+R99S	4.71	2/3
W56H+Q96S+L102Y	0.25	3/3
E32Q+W56P+P101T	nd	0/3
W56D+S58Y	-0.36	3/3
A40S+Q95G+Y97V	nd	0/3
S26D+E32T+S58M	nd	0/3
L30Q+H98T+L100A	1.90	3/3
T59Q+Q96H	2.81	2/3
S25E+Q27R+Q95I	3.44	1/3
K24H+V29L+N37P	3.28	3/3
V39P+H98E+R99Q	4.51	3/3
S26T+H98G+L100T	nd	0/3
S26V+A57Y+T59Q	nd	0/3

The 4 strongest on average among those seen in every replicate, once more:

{"changes": "W56D+S58Y", "log10 Kd (nM), mean": "-0.36", "seen in": "3/3"}
{"changes": "V29E+R34P+S62M", "log10 Kd (nM), mean": "0.19", "seen in": "3/3"}
{"changes": "W56H+Q96S+L102Y", "log10 Kd (nM), mean": "0.25", "seen in": "3/3"}
{"changes": "S33H+N37K+W56H", "log10 Kd (nM), mean": "0.63", "seen in": "3/3"}